Hits are enriched below; roughly 1.6% of the tested compounds scored in any of these assays.
PglD DTNB: PglD (C. jejuni) enzyme inhibition. inhibition, % at 12.5 µM. actives 0.098% (n = 360,000). purified PglD enzyme, DTNB colorimetric CoA detection; in the data active = inhibition above about 16%, passing the limit was not always enough
UUG fidelity: modulators of yeast start codon fidelity, primary screen, whole organism, S. cerevisiae, single point, plate reader; S. cerevisiae UUG-firefly luciferase reporter, luminescence/redox ratio; activity score, % at 18.7 µM; actives 0.13% (n = 350,000); AID 602363, 2012;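 active = replicate mean at a twofold rise or more, about +100% in these data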;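 also: firefly luciferase made from a UUG start codon reports start codon fidelity; reporter light over untreated wells divided by growth signal over untreated wells; some hits fall short of that in this replicate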
ARNT-TACC3 inh: ARNT/TACC3 interaction disruption. AlphaScreen His-ARNT PAS-B/GST-TACC3 binding, luminescence; TACC3 fragment carries E629A point mutation. inhibition, % at 9.99 µM. actives 0.66% (n = 390,000). AID 623870;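 active = mean inhibition of replicates at least 50% and at least half of replicates each reaching 50%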;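 also: 0% = complete ARNT plus TACC3 wells and 100% = ARNT alone without TACC3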
Vif inh: blocks HIV Vif function; HEK293T cells, Vif self-association by quenched fluorescence, imaging, 24 h; inhibition, % at 7.49 µM; actives 0.35% (n = 340,000); in the data active = inhibition above about 50%, passing the limit was not always enough
CAL PDZ FP-1: inhibitors of human CAL PDZ peptide binding | purified CAL PDZ, TMR-peptide fluorescence polarization, 1 h | inhibition, % at 20 µM | actives 0.02% (n = 330,000) | AID 504414;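 active = highest replicate inhibition of at least 40%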;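 also: plate controls were DMSO neutral control wells for no effect and unlabeled competitor peptide control wells for full effect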
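Material: tagged CAL PDZ domain; buffer or medium: 25 mM sodium phosphate pH 7.4, 150 mM NaCl, TCEP, IgG, Thesit; compound dosing: single point, 20 µM; schedule: 1 h incubation at room temperature before polarization reading; measured by: FP readout, S and P plane fluorescence; read-out basis: percent inhibition from loss of millipolarization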
CAL PDZ FP-2: inhibitors of human CAL PDZ peptide binding | Q9HD26 | purified CAL PDZ, TMR-peptide fluorescence polarization, 1 h | inhibition, % at 24.9 µM | actives 0.92% (n = 300,000);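 active = mean inhibition of at least 30% with at least half of replicates also reaching 30%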;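 also: 0% = DMSO neutral control and 100% = excess unlabeled competitor peptide PRC23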
* = called active by the depositor.

For Cc1c(N=Nc2c(O)n(Cc3ccccc3)c(=O)[nH]c2=O)c(=O)n(-c2ccccc2)n1C the results were PglD DTNB 5, UUG fidelity -27, ARNT-TACC3 inh 62*, Vif inh -1 and CAL PDZ FP-1 -2.
For COc1cccc(CN2CCNCC2)c1OC the results were PglD DTNB -2, UUG fidelity -24, ARNT-TACC3 inh 0, Vif inh -1, CAL PDZ FP-1 15 and CAL PDZ FP-2 90*.
O=C(N/N=C/c1c(O)n(CCc2ccccc2)c(=O)[nH]c1=O)c1ccccc1 was read as PglD DTNB 2, UUG fidelity -21 and Vif inh 8.
`CCCCn1c(O)c(/C=N/NC(=O)c2ccncc2)c(=O)[nH]c1=O` gave PglD DTNB -5, UUG fidelity -33, ARNT-TACC3 inh 66*, Vif inh -5, CAL PDZ FP-1 -2 and CAL PDZ FP-2 -1.
Screening Cc1ccccc1-n1c(O)c(/C=N/c2nccs2)c(=O)[nH]c1=O returned PglD DTNB 3, UUG fidelity -24, ARNT-TACC3 inh -7, Vif inh 27, CAL PDZ FP-1 0 and CAL PDZ FP-2 -1.
`Cc1cc(C)c(-n2c(O)c(/C=N/NC(=O)c3ccncc3)c(=O)[nH]c2=O)c(C)c1` gave PglD DTNB 0, UUG fidelity -35, ARNT-TACC3 inh 64*, Vif inh -5 and CAL PDZ FP-1 0.
For Cn1c(=O)c2c(nc(N/N=C/c3c(O)n(-c4ccccc4)c(=S)[nH]c3=O)n2C)n(C)c1=O the results were PglD DTNB 3, UUG fidelity -26, ARNT-TACC3 inh 58*, Vif inh 11, CAL PDZ FP-1 -1 and CAL PDZ FP-2 0.
For O=c1[nH]c(=S)n(-c2ccccc2)c(O)c1C=NCc1ccccn1 the results were PglD DTNB 2, UUG fidelity -22 and Vif inh 14.
For Cc1ccccc1-n1c(O)c(/C=N/NC(=O)c2ccncc2)c(=O)[nH]c1=O the results were ARNT-TACC3 inh 71*, Vif inh -2, CAL PDZ FP-1 1 and CAL PDZ FP-2 0.
Screening COC(=O)[C@H]1[C@H](CO)[C@H]2Cn3c(ccc(-c4cccnc4)c3=O)[C@@H]1N2S(=O)(=O)c1ccccc1F returned PglD DTNB 1 and ARNT-TACC3 inh -11.
COC(=O)[C@@H]1[C@@H](CO)[C@@H]2Cn3c(ccc(-c4cccnc4)c3=O)[C@H]1N2CCc1ccccc1 was read as PglD DTNB 6 and ARNT-TACC3 inh -42.
For COC(=O)[C@@H]1[C@@H](CO)[C@@H]2Cn3c(ccc(-c4ccccc4F)c3=O)[C@H]1N2C(C)=O the results were PglD DTNB 1 and ARNT-TACC3 inh -1.
`COc1ccc(-n2c(O)c(C=NCCCn3ccnc3)c(=O)[nH]c2=O)cc1` gave PglD DTNB -4, UUG fidelity -13, ARNT-TACC3 inh 4, Vif inh -3, CAL PDZ FP-1 -1 and CAL PDZ FP-2 -3.
For Cc1ccc(-n2c(O)c(C=NCCCn3ccnc3)c(=O)[nH]c2=O)cc1 the results were ARNT-TACC3 inh -3, Vif inh -9, CAL PDZ FP-1 -1 and CAL PDZ FP-2 73*.
`CC(C)c1ccc(-n2c(O)c(/C=N/NC(=O)c3ccccc3O)c(=O)[nH]c2=S)cc1` gave PglD DTNB -4, UUG fidelity -26, ARNT-TACC3 inh 85*, Vif inh -16, CAL PDZ FP-1 0 and CAL PDZ FP-2 5.
Screening CCc1ccc(-n2c(O)c(/C=N/NC(=O)c3ccncc3)c(=O)[nH]c2=O)cc1 returned ARNT-TACC3 inh 4, Vif inh 2, CAL PDZ FP-1 -1 and CAL PDZ FP-2 -4.
For CC(C)c1ccc(-n2c(O)c(/C=N/NC(=O)c3ccncc3)c(=O)[nH]c2=O)cc1 the results were ARNT-TACC3 inh 61*, Vif inh -2, CAL PDZ FP-1 0 and CAL PDZ FP-2 -5.
Screening COC(=O)[C@H]1[C@H](CO)[C@H]2Cn3c(ccc(-c4cccc(F)c4)c3=O)[C@@H]1N2C(=O)CC1CC1 returned PglD DTNB -2 and ARNT-TACC3 inh 6.
Screening CN1C2CCC1/C(=C/c1ccccn1)C(=O)/C2=C\c1ccccn1 returned PglD DTNB 2, UUG fidelity -6, ARNT-TACC3 inh 1, Vif inh 106*, CAL PDZ FP-1 -2 and CAL PDZ FP-2 0.
For CCN(CC)C(=O)c1ccc2c(c1)C1C=CCC1C(C(=O)O)N2 (stereo not given) the results were PglD DTNB -1, UUG fidelity 4, ARNT-TACC3 inh 13*, Vif inh -5, CAL PDZ FP-1 2 and CAL PDZ FP-2 1.
For COc1ccc(O)c2c(=O)c3c(OC)cc4c(c3oc12)C1C=COC1O4 (stereo not given) the results were PglD DTNB -4, UUG fidelity 2, ARNT-TACC3 inh -10, Vif inh 73*, CAL PDZ FP-1 1 and CAL PDZ FP-2 1.
For C=C1C(=O)OC2CC3(C)OC3C3OC3C3=CC(OC3=O)C12 (stereo not given) the results were PglD DTNB 5, UUG fidelity -7 and Vif inh 86*.
`O=[N+]([O-])c1ccc(N2CCOCC2)c2c1no[n+]2[O-]` gave PglD DTNB -1, UUG fidelity 54 and Vif inh 106*.
CCNC(=O)C1OC(n2cnc3c(N)ncnc32)C(O)C1O (stereo not given) was read as PglD DTNB -6, UUG fidelity -14, ARNT-TACC3 inh 6, Vif inh 51*, CAL PDZ FP-1 0 and CAL PDZ FP-2 1.
Screening COc1ccc2c(c1)C13CCN(C)C(C2)C1CCC1(C3)OCCO1 (stereo not given) returned ARNT-TACC3 inh -2, Vif inh 10, CAL PDZ FP-1 -1 and CAL PDZ FP-2 -4.
`COc1ccc2c(c1)[C@@]13CCC=C[C@H]1[C@@H](C2)NCC3` gave PglD DTNB 10, UUG fidelity -22, ARNT-TACC3 inh -5, Vif inh 61*, CAL PDZ FP-1 0 and CAL PDZ FP-2 1.
Screening COC(=O)[C@H]1[C@H](CO)[C@H]2Cn3c(ccc(-c4ccccc4OC)c3=O)[C@@H]1N2Cc1ccccc1 returned PglD DTNB -1 and ARNT-TACC3 inh 0.
Screening CCc1nc2ccc(N3CCN(C)CC3)cc2nc1CC returned PglD DTNB -7, UUG fidelity -16, ARNT-TACC3 inh -4, Vif inh -4, CAL PDZ FP-1 -2 and CAL PDZ FP-2 49*.
For COC(=O)[C@H]1[C@H](CO)[C@H]2Cn3c(ccc(C4=CCCCC4)c3=O)[C@@H]1N2C(=O)CC1CC1 the results were PglD DTNB -1 and ARNT-TACC3 inh -8.
CN(C)C(=O)[C@@H]1[C@@H](CO)[C@@H]2Cn3c(cccc3=O)[C@H]1N2CC1CC1 was read as PglD DTNB -4, UUG fidelity -17 and ARNT-TACC3 inh 1.

As a short view, 3 of the compounds above.
Screening CCc1nc2ccc(N3CCN(C)CC3)cc2nc1CC returned PglD DTNB -7, UUG fidelity -16, ARNT-TACC3 inh -4, Vif inh -4, CAL PDZ FP-1 -2 and CAL PDZ FP-2 49*.
For COC(=O)[C@H]1[C@H](CO)[C@H]2Cn3c(ccc(C4=CCCCC4)c3=O)[C@@H]1N2C(=O)CC1CC1 the results were PglD DTNB -1 and ARNT-TACC3 inh -8.
CN(C)C(=O)[C@@H]1[C@@H](CO)[C@@H]2Cn3c(cccc3=O)[C@H]1N2CC1CC1 was read as PglD DTNB -4, UUG fidelity -17 and ARNT-TACC3 inh 1.
